# Antibody variant affinities, Ab-91 heavy chain, assay 2

Target: peptide PDVDLGDISGINAS, taken from heptad repeat 2 (HR2) of SARS-CoV-2 spike.

Parent scFv Ab-91: VL joined to VH by a 15-residue (Gly4Ser)3 linker. Changes lie in the heavy chain CDRs alone.
VL: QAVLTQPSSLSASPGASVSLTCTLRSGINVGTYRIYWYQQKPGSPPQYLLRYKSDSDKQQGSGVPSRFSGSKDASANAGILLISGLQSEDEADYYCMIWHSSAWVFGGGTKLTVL
VH: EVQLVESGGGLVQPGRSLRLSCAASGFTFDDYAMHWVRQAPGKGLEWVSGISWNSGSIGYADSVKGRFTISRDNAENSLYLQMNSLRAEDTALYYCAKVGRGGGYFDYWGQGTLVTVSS

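Phage display of a naive human antibody library on the peptide gave the parent. Variants in AAYL51 differ from the parent at up to three CDR positions; double and triple changes were sampled at random. In AlphaSeq, yeast of one mating type display the scFv and yeast of the other type display the target. Binding brings cells together so that they mate, and sequencing counts the barcode pairs among the diploids. Scores were corrected for input abundance and mapped to Kd with protein pairs of known affinity run in the same pool. There are three technical replicates.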

Variants are written as CDR1, CDR2 and CDR3 of the heavy chain (limits as in the source). Parent: GFTFDDYAMH, GISWNSGSIGYADSVK, VGRGGGYFDY. The read-out is the apparent dissociation constant on a log10 scale (nM): the lower, the stronger. A mean of the replicates is given; it leaves out those without a signal. An entry "nd" has no value in the source: the pair was not observed among the diploids in any replicate. This suggests poor binding but is not conclusive. Parent in this assay: reference entry 1.86, copy in this library 0.88. Three control strains display no target. For library AAYL51, 21% of the pairings with them gave a signal, with a median of 4.54 and one signal in twenty below 3.26, so weak values seen in few replicates may be background.

CDR-H1	CDR-H2	CDR-H3	mean, log10 nM	detected
GFTFDDYAMH	GISWCSGSIGYADSVK	VGRGGHYFDY	nd	0/3
GFTFDDYAMC	GISWNSGSIGYHVSVK	VGRGGGYFDY	nd	0/3
GWTFDDYAMH	GISWNSGSIGYADSVK	SGRGGGYLDY	4.38	1/3
GFTFDDYAMH	GISWNSGSIGVADSVK	FGRVGGYFDY	1.13	3/3
IFTFDDAAMH	GISWNSGSIGYADSVK	VGRMGGYFDY	nd	0/3
GFTFDDYAMN	GISWNSGSIGYADSVK	VGRGGRYFDL	4.03	1/3
GFTFDDRAHG	GISWNSGSIGYADSVK	VGRGGGYFDY	nd	0/3
GFTIDDYAMH	GISWNSGIIGYADSVP	VGRGGGYFDY	5.30	1/3
GFTFDDYAMH	GISWNSFSRGYADSVK	VGRGGGLFDY	3.15	3/3
GWTFDDYAMH	GISWNSGSIGYADSYC	VGRGGGYFDY	3.79	3/3
GFTFDDYAMI	SISWASGSIGYADSVK	VGRGGGYFDY	nd	0/3
GFTFDDYFMH	GISWNSGSIEYADSVP	VGRGGGYFDY	4.80	1/3
GFTFFDYAMH	GISWNSGDIGYADSVK	VGRGGGYFVY	1.30	3/3
GFTIDDYAYH	GISWNSGSIGYADSVK	VGRGGGYFDC	4.26	1/3
GCTFDDYAMH	GISWNSGSIGYADRVK	VGRGGGKFDY	3.77	2/3
GFTFDDYAML	GIHWGSGSIGYADSVK	VGRGGGYFDY	4.91	3/3
GFTFDDEAMH	GISWNSGSIGAADSVK	VGRGGGYFDY	3.26	1/3
KRTFDAYAMH	GISWNSGSIGYADSVK	VGRGGGYFDY	4.32	2/3
VCTDDDYAMH	GISWNSGSIGYADSVK	VGRGGGYFDY	2.18	3/3
GFTFDDYAMH	GISWNSKSIGYADSVK	VGRKGGYFAY	4.95	2/3
GFTFDDYAMH	PISWNIGSIRYADSVK	VGRGGGYFDY	nd	0/3
DWTFDDYAMH	GISWNSGSIGYADSVK	VGRDGGYFDY	nd	0/3
GFTFDRYAMH	GNSWNSGSIGYADSVK	VGRGGGYFWY	4.48	1/3
GFTFDDYAMH	GISWNSGSIGYSDDVK	VGREGGYFDY	2.50	3/3

Further variants, results first:

mean, log10 nM	detected	CDR-H1	CDR-H2	CDR-H3
4.06	2/3	GFTFDDYAMH	GISWNSGSIGYADMVK	VIRGGGYFDY
4.24	1/3	GCTFDDYAQH	GISWNSGSIGYADSVK	VGRGGEYFDY
nd	0/3	GFTFDFYWMH	GISWNSTSIGYADSVK	VGRGGGYFDY
5.82	1/3	GFTFDDYAMH	GRSWNSGSIGYADSVK	VGRKGGYFMY
nd	0/3	GFTFDDPAMH	GISWNSGSIGYADLVP	VGRGGGYFDY
nd	0/3	GFTFDDYAVH	GISWNSGSIKMADSVK	VGRGGGYFDY
nd	0/3	GFTFDDYAMH	GISWNSGVIGYADSMK	VGRHGGYFDY
nd	0/3	GFTFDTYAME	GISWNSGSIGYADKVK	VGRGGGYFDY
4.73	3/3	GFTRKDYAMH	GISWNSGSIGYRDSVK	VGRGGGYFDY
5.28	2/3	GFTWDDYAMH	GISWNSMSIGYALSVK	VGRGGGYFDY
3.58	1/3	GFTQDVYAMH	GISWNSGSIGYADSVK	VGRGGGMFDY
3.42	1/3	GCTFDDYAMH	GISWNSGSIGYADSVK	VGFGGGYFDY
nd	0/3	GFTFDDYAMH	GIAWNMGPIGYADSVK	VGRGGGYFDY
5.68	3/3	MFTFDDYDMH	GISWNSGSIGYADSVK	VGRGGGYFDY
4.67	1/3	GFDFDDYAMH	GISWNMGSIGCADSVK	VGRGGGYFDY
4.14	2/3	GFTFDDYAMH	GIGWNSGSIGYADSRK	VGRGGGYFDY
4.66	1/3	GFTFDDYAMH	GRSWASGSIGYADSVK	VGRGGGYFDD
4.74	1/3	GFTFEDYAMH	GWSWNSGSIGYADSVK	VGRGGGYFDY
nd	0/3	GFTFDDVAMH	GISWNSGSIAYADSVK	VGRAGGYFDY
1.76	3/3	GFEFNDYAMH	GISWNSGSIGYAHSVK	VGRGGGYFDY
1.69	3/3	GFTFDDYAMH	GISWNSYSIGYADSVI	VGRGGGYNDY
4.79	3/3	GFTFDDYDMH	QISWNSGSIGYADSVK	VGCGGGYFDY
nd	0/3	VVTFDDYAMH	GISWNSGSIGYADSVK	MGRGGGYFDY
nd	0/3	GFTFDDYAMH	LISWNSGSIGYAKSVK	VGRGGGGFDY
nd	0/3	GFTFDDYAMH	GQSWNSGSVGYADSVK	VGRIGGYFDY

Repeated from above, the 5 best binders with a signal in all replicates:

CDR-H1,CDR-H2,CDR-H3,"mean, log10 nM",detected
GFTFDDYAMH,GISWNSGSIGVADSVK,FGRVGGYFDY,1.13,3/3
GFTFFDYAMH,GISWNSGDIGYADSVK,VGRGGGYFVY,1.30,3/3
GFTFDDYAMH,GISWNSYSIGYADSVI,VGRGGGYNDY,1.69,3/3
GFEFNDYAMH,GISWNSGSIGYAHSVK,VGRGGGYFDY,1.76,3/3
VCTDDDYAMH,GISWNSGSIGYADSVK,VGRGGGYFDY,2.18,3/3

Data: MIT Lincoln Laboratory AlphaSeq set, Engelhart et al. 2022, doi:10.1038/s41597-022-01779-4, as distributed in FLAb.